Chains of the proteins cited; added tags and fusions are not shown.
UniProt P35372, whole entry, looked up: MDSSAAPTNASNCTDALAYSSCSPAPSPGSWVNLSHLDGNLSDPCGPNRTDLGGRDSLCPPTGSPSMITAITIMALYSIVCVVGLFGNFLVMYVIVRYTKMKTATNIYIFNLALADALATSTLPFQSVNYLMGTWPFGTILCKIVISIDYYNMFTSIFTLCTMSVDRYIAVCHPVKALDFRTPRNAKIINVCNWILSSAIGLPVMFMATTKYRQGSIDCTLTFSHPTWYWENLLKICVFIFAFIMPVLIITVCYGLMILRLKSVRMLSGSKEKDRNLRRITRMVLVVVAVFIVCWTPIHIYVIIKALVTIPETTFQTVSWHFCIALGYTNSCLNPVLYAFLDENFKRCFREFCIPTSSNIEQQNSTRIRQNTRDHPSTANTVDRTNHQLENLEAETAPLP

According to patent US20090253669A1, “Substituted Sulfonamide Compounds” (GRUENENTHAL GmbH, priority 2008, published 2009):

Target: human μ opiate receptor (Homo sapiens, UniProt P35372)
Experiment: [3H]-naloxone displacement, SPA, membranes of CHO-K1 cells
Settings: 1 μM test substance; inhibition of specific binding of 1 nmol/l [3H]-naloxone

Question: With `O=C(COCC1CCCN1S(=O)(=O)c1c(Cl)cc(Cl)cc1Cl)NC1CCC(Cc2ccccc2)(N2CCCC2)CC1` (stereo not shown) [Compound 156, N-(4-benzyl-4-(pyrrolidin-1-yl)cyclohexyl)-2-((1-(2,4,6-trichlorophenylsulfonyl)pyrrolidin-2-yl)methoxy)acetamide] as the compound, how does the “μ opioid receptor [1 μM] % inhibition” value read?
Answer: 91%

Question: With `Cc1cc(S(=O)(=O)N2CCCCC2CCC(=O)N(C)CCC2CCC(c3ccccc3)(N3CCCC3)CC2)c(C)cc1Cl` (stereo not shown) [Compound 139, 3-(1-(4-chloro-2,5-dimethylphenylsulfonyl)piperidin-2-yl)-N-methyl-N-(2-(4-phenyl-4-(pyrrolidin-1-yl)cyclohexyl)ethyl)propanamide] as the compound, how does the “μ opioid receptor [1 μM] % inhibition” value read?
Answer: 56%

Question: With `COc1cc(C)c(S(=O)(=O)N(C)CCOCC(=O)N(C)CCC2CCC(c3cccnc3)(N(C)C)CC2)c(C)c1` (stereo not shown) [Compound 207, N-(2-(4-(Dimethylamino)-4-(pyridin-3-yl)cyclohexyl)ethyl)-2-(2-(4-methoxy-N,2,6-trimethylphenylsulfonamido)ethoxy)-N-methylacetamide] as the compound, how does the “μ opioid receptor [1 μM] % inhibition” value read?
Answer: 96%

Question: For `CN1CCN(C2(CCc3ccccc3)CCC(CN(C)C(=O)COCC3CCCN3S(=O)(=O)c3c(Cl)cc(Cl)cc3Cl)CC2)CC1` (stereo not shown) [Compound 172, N-methyl-N-((4-(4-methylpiperazin-1-yl)-4-phenethylcyclohexyl)methyl)-2-((1-(2,4,6-trichlorophenylsulfonyl)pyrrolidin-2-yl)methoxy)acetamide], which “μ opioid receptor [1 μM] % inhibition” value is on record?
Answer: 35%

Question: For `COc1cc(C)c(S(=O)(=O)N(C)CCOCC(=O)N2CCC(c3cccc(F)c3)(N3CCN(C)CC3)CC2)c(C)c1`, which “μ opioid receptor [1 μM] % inhibition” value is on record?
Answer: 2%

Question: With `Cc1cc(S(=O)(=O)N2CCCCC2CCC(=O)N2CCC(Cc3ccccc3)(N(C)C)CC2)c(C)cc1Cl` (stereo not shown) [Compound 80, 1-(4-benzyl-4-(dimethylamino)piperidin-1-yl)-3-(1-(4-chloro-2,5-dimethylphenylsulfonyl)piperidin-2-yl)propan-1-one] as the compound, how does the “μ opioid receptor [1 μM] % inhibition” value read?
Answer: 61%

Question: For `CN(CCC1CCC(CCc2ccccc2)(N(C)C)CC1)C(=O)CC(NS(=O)(=O)c1ccc2ccccc2c1)c1ccccc1` (stereo not shown) [Compound 102, N-(2-(4-(dimethylamino)-4-phenethylcyclohexyl)ethyl)-N-methyl-3-(naphthalene-2-sulfonamido)-3-phenylpropanamide], which “μ opioid receptor [1 μM] % inhibition” value is on record?
Answer: 81%

Question: For `COc1cc(C)c(S(=O)(=O)N(C)CCOCC(=O)NCC2CCC(c3ccccc3)(N3CCOCC3)CC2)c(C)c1` (stereo not shown) [Compound 185, 2-(2-(4-methoxy-N,2,6-trimethylphenylsulfonamido)ethoxy)-N-((4-morpholino-4-phenylcyclohexyl)methyl)acetamide], which “μ opioid receptor [1 μM] % inhibition” value is on record?
Answer: 15%

Question: `CN(C)C1(CCc2ccccc2)CCN(C(=O)CC2CCCCN2S(=O)(=O)c2cccc(C(F)(F)F)c2)CC1` (stereo not shown) [Compound 71, 1-(4-(dimethylamino)-4-phenethylpiperidin-1-yl)-2-(1-(3-(trifluoromethyl)phenylsulfonyl)piperidin-2-yl)ethanone] was tested. Which “μ opioid receptor [1 μM] % inhibition” value did it give?
Answer: 28%

Question: For `Cc1cc(S(=O)(=O)N2CCCCC2CCC(=O)N2CCC(c3ccccc3)(N3CCN(C)CC3)CC2)c(C)cc1Cl` (stereo not shown) [Compound 110, 3-(1-(4-chloro-2,5-dimethylphenylsulfonyl)piperidin-2-yl)-1-(4-(4-methylpiperazin-1-yl)-4-phenylpiperidin-1-yl)propan-1-one], which “μ opioid receptor [1 μM] % inhibition” value is on record?
Answer: 54%

Question: For `COc1cc(C)c(S(=O)(=O)N2CCCC(OCC(=O)N(C)CC3CCC(Cc4ccccc4)(N4CCN(C)CC4)CC3)C2)c(C)c1` (stereo not shown) [Compound 184, N-((4-benzyl-4-(4-methylpiperazin-1-yl)cyclohexyl)methyl)-2-(1-(4-methoxy-2,6-dimethylphenylsulfonyl)piperidin-3-yloxy)-N-methylacetamide], which “μ opioid receptor [1 μM] % inhibition” value is on record?
Answer: 26%

Question: Which “μ opioid receptor [1 μM] % inhibition” value does the source give for `CN(C)C1(c2cccc(F)c2)CCC(NC(=O)COCCN(C)S(=O)(=O)c2ccc(Cl)cc2Cl)CC1` (stereo not shown) [Compound 21, 2-(2-(2,4-dichloro-N-methylphenylsulfonamido)ethoxy)-N-(4-(dimethylamino)-4-(3-fluorophenyl)cyclohexyl)acetamide] here?
Answer: 100%

Question: With `COc1cc(C)c(S(=O)(=O)N(C)CCOCC(=O)N(C)CC2CCC(c3ccccc3)(N3CCCC3)CC2)c(C)c1` (stereo not shown) [Compound 35, 2-(2-(4-methoxy-N,2,6-trimethylphenylsulfonamido)ethoxy)-N-methyl-N-((4-phenyl-4-(pyrrolidin-1-yl)cyclohexyl)methyl)acetamide] as the compound, how does the “μ opioid receptor [1 μM] % inhibition” value read?
Answer: 26%

Question: For `Cc1cc(S(=O)(=O)N2CCCCC2CCC(=O)N(C)CCC2CCC(CCc3ccccc3)(N(C)C)CC2)c(C)cc1Cl` (stereo not shown) [Compound 132, 3-(1-(4-chloro-2,5-dimethylphenylsulfonyl)piperidin-2-yl)-N-(2-(4-(dimethylamino)-4-phenethylcyclohexyl)ethyl)-N-methylpropanamide], which “μ opioid receptor [1 μM] % inhibition” value is on record?
Answer: 45%

Question: How did the “μ opioid receptor [1 μM] % inhibition” value turn out when `CN(CCC1CCC(c2ccccc2)(N(C)C)CC1)C(=O)CC1CCCCN1S(=O)(=O)c1cccc(C(F)(F)F)c1` (stereo not shown) [Compound 125, N-(2-(4-(dimethylamino)-4-phenylcyclohexyl)ethyl)-N-methyl-2-(1-(3-(trifluoromethyl)phenylsulfonyl)piperidin-2-yl)acetamide] was run?
Answer: 99%

Question: `COc1cc(C)c(S(=O)(=O)N2CCCCC2COCC(=O)N(C)CCCC2CCC(c3ccccc3)(N3CCC3)CC2)c(C)c1` (stereo not shown) [Compound 205, N-(3-(4-(azetidin-1-yl)-4-phenylcyclohexyl)propyl)-2-((1-(4-methoxy-2,6-dimethylphenylsulfonyl)piperidin-2-yl)methoxy)-N-methylacetamide] was tested. Which “μ opioid receptor [1 μM] % inhibition” value did it give?
Answer: 77%

Question: For `COc1cc(C)c(S(=O)(=O)N2CCCC2COCC(=O)NC2CCC(c3ccccc3)(N3CCCC3)CC2)c(C)c1` (stereo not shown) [Compound 145, 2-((1-(4-methoxy-2,6-dimethylphenylsulfonyl)pyrrolidin-2-yl)methoxy)-N-(4-phenyl-4-(pyrrolidin-1-yl)cyclohexyl)acetamide], which “μ opioid receptor [1 μM] % inhibition” value is on record?
Answer: 93%

Question: `CN(C)C1(c2ccccc2)CCC(NC(=O)COCCN(C)S(=O)(=O)c2c(Cl)cc(Cl)cc2Cl)CC1` (stereo not shown) [Compound 199, N-(4-(dimethylamino)-4-phenylcyclohexyl)-2-(2-(2,4,6-trichloro-N-methylphenylsulfonamido)ethoxy)acetamide] was tested. Which “μ opioid receptor [1 μM] % inhibition” value did it give?
Answer: 100%

Question: With `COc1cc(C)c(S(=O)(=O)N2CCCCC2COCC(=O)N(C)CC2CCC(Cc3ccccc3)(N3CCN(C)CC3)CC2)c(C)c1` (stereo not shown) [Compound 143, N-((4-benzyl-4-(4-methylpiperazin-1-yl)cyclohexyl)methyl)-2-((1-(4-methoxy-2,6-dimethylphenylsulfonyl)piperidin-2-yl)methoxy)-N-methylacetamide] as the compound, how does the “μ opioid receptor [1 μM] % inhibition” value read?
Answer: 34%

Question: `COc1cc(C)c(S(=O)(=O)N(C)CCOCC(=O)N2CCC(N)(c3ccccc3)CC2)c(C)c1` [Compound 196, N-(2-(2-(4-Amino-4-phenylpiperidin-1-yl)-2-oxoethoxy)ethyl)-4-methoxy-N,2,6-trimethylbenzenesulfonamide] was tested. Which “μ opioid receptor [1 μM] % inhibition” value did it give?
Answer: 15%

Question: `CN1CCN(C2(CCc3ccccc3)CCC(CN(C)C(=O)COCCN(C)S(=O)(=O)c3c(Cl)cc(Cl)cc3Cl)CC2)CC1` (stereo not shown) [Compound 195, N-methyl-N-((4-(4-methylpiperazin-1-yl)-4-phenethylcyclohexyl)methyl)-2-(2-(2,4,6-trichloro-N-methylphenylsulfonamido)ethoxy)acetamide] was tested. Which “μ opioid receptor [1 μM] % inhibition” value did it give?
Answer: 17%

Question: `COc1cc(C)c(S(=O)(=O)N2CCCC(COCC(=O)N(C)CC3CCC(CCc4ccccc4)(N4CCN(C)CC4)CC3)C2)c(C)c1` (stereo not shown) [Compound 182, 2-((1-(4-methoxy-2,6-dimethylphenylsulfonyl)piperidin-3-yl)methoxy)-N-methyl-N-((4-(4-methylpiperazin-1-yl)-4-phenethylcyclohexyl)methyl)acetamide] was tested. Which “μ opioid receptor [1 μM] % inhibition” value did it give?
Answer: 7%

Question: How did the “μ opioid receptor [1 μM] % inhibition” value turn out when `COc1cc(C)c(S(=O)(=O)N(C)CCOCC(=O)N2CCC(c3cccnc3)(N(C)C)CC2)c(C)c1` [Compound 208, N-(2-(2-(4-(Dimethylamino)-4-(pyridin-3-yl)piperidin-1-yl)-2-oxoethoxy)ethyl)-4-methoxy-N,2,6-trimethylbenzenesulfonamide] was run?
Answer: 30%

Question: How did the “μ opioid receptor [1 μM] % inhibition” value turn out when `COc1cc(C)c(S(=O)(=O)N(C)CCOCC(=O)NC2CCC(Cc3ccccc3)(N3CCOCC3)CC2)c(C)c1` (stereo not shown) [Compound 171, N-(4-benzyl-4-morpholinocyclohexyl)-2-(2-(4-methoxy-N,2,6-trimethylphenylsulfonamido)ethoxy)acetamide] was run?
Answer: 29%

Question: Which “μ opioid receptor [1 μM] % inhibition” value does the source give for `CN(C)C1(c2ccccc2)CCN(C(=O)COCC2CCc3ccccc3N2S(=O)(=O)c2ccc(Cl)c(Cl)c2)CC1` (stereo not shown) [Compound 109, 2-((1-(3,4-dichlorophenylsulfonyl)-1,2,3,4-tetrahydroquinolin-2-yl)methoxy)-1-(4-(dimethylamino)-4-phenylpiperidin-1-yl)ethanone] here?
Answer: 94%

Question: How did the “μ opioid receptor [1 μM] % inhibition” value turn out when `CN(CCCC1CCC(CCc2ccccc2)(N2CCCC2)CC1)C(=O)CC1CCCCN1S(=O)(=O)c1cccc(C(F)(F)F)c1` (stereo not shown) [Compound 134, N-methyl-N-(3-(4-phenethyl-4-(pyrrolidin-1-yl)cyclohexyl)propyl)-2-(1-(3-(trifluoromethyl)phenylsulfonyl)piperidin-2-yl)acetamide] was run?
Answer: 2%

Question: Which “μ opioid receptor [1 μM] % inhibition” value does the source give for `COc1cc(C)c(S(=O)(=O)N(C)CCOCC(=O)NC2CCC(c3ccccc3)(N3CCCC3)CC2)c(C)c1` (stereo not shown) [Compound 150, 2-(2-(4-methoxy-N,2,6-trimethylphenylsulfonamido)ethoxy)-N-(4-phenyl-4-(pyrrolidin-1-yl)cyclohexyl)acetamide] here?
Answer: 85%

Question: Which “μ opioid receptor [1 μM] % inhibition” value does the source give for `O=C(COCC1CCc2ccccc2N1S(=O)(=O)c1ccc(Cl)c(Cl)c1)N1CCC(c2ccccc2)(N2CCN(c3ccncc3)CC2)CC1` (stereo not shown) [Compound 100, 2-((1-(3,4-dichlorophenylsulfonyl)-1,2,3,4-tetrahydroquinolin-2-yl)methoxy)-1-(4-phenyl-4-(4-(pyridin-4-yl)piperazin-1-yl)piperidin-1-yl)ethanone] here?
Answer: 21%
